# Measured affinities in a library of Ab-91 heavy chain variants

Antigen: PDVDLGDISGINAS, a 14-residue peptide of the SARS-CoV-2 spike HR2 region.

Ab-91 is the parent antibody, in scFv form: VL, then three GGGGS repeats, then VH. The light chain is unchanged in all variants.
VL: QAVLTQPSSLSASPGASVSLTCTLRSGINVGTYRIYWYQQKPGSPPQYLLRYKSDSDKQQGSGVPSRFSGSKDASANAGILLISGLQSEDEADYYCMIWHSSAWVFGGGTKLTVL
VH: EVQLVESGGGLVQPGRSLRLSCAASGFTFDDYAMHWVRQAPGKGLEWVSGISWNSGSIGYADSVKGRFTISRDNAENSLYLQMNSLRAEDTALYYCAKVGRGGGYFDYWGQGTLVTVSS

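The library (AAYL51) carries one to three amino acid substitutions per variant, with no insertions or deletions. The scFvs were displayed on barcoded MATa yeast, the peptide on MATalpha yeast. Mating (16 h, 30 °C) was followed by selection of diploids and sequencing of their barcodes. Read counts were normalised to the haploid input and turned into Kd by a linear fit to BCL2-family pairs of known affinity, for each replicate. There are three technical replicates.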

The parent's heavy chain CDRs are GFTFDDYAMH, GISWNSGSIGYADSVK, VGRGGGYFDY; each variant's own CDRs replace them letter for letter. Affinities are written as log10 Kd with Kd in nM; a lower number is a better binder. The mean shown is taken over the replicates in which the pair was detected. "ND" means that the variant was in the library but no mating with the target was seen in that replicate; the authors take this as a sign of poor binding, and no number exists. Nonspecific signal, from three strains lacking the peptide, appeared in 21% of pairings of library AAYL51, centred on 4.54 (5% of these signals below 3.26); values are not corrected for it. For each scFv, signals with the empty controls are counted beside the result, with their mean in brackets.

CDR-H1 | CDR-H2 | CDR-H3 | replicates, log10 nM | log10 Kd (nM), mean | control signals
GFTVDDYAMH | GISWNYGSIGYADSVK | SGRGGGYFDY | 4.47 / 4.26 / ND | 4.37 | 4/9 (4.51)
GFTFDDYAMH | GISWNSGSIGYKDSVK | VGRGGGYFDY | 4.71 / 5.54 / 4.47 | 4.91 | 6/9 (4.50)
EFTFDDYAMH | GISWNSGSIIYADSVK | VGAGGGYFDY | ND / ND / ND | ND | 0/9
GFTFDDYAMH | GIAWNSGSIGCADSVK | IGRGGGYFDY | 4.35 / 6.31 / 4.88 | 5.18 | 3/9 (4.88)
GFTFDYYAMH | GISWNSGSIGCADSVK | VGRGGGYFIY | 4.66 / 3.62 / 2.92 | 3.73 | 1/9 (3.80)
GNAFDDYAMH | GISWNSGSIGYADSVK | VGRGKGYFDY | ND / ND / 3.71 | 3.71 | 0/9
GFTFDDYAMH | GISWNSFSIGYASSVK | VGRGGGYFDY | 3.50 / ND / 0.62 | 2.06 | 0/9
GITFDDYAMH | GISWNSGSIGYADSGK | VQRGGGYFDY | ND / 4.27 / ND | 4.27 | 1/9 (4.20)
GFLFDDWAMH | GISWNSGSIGYADSVK | VGRGGGYFFY | 3.05 / ND / ND | 3.05 | 2/9 (3.16)
GWTFDDYAMH | GISWNSGSIGRADSVK | VGRGVGYFDY | ND / ND / ND | ND | 2/9 (3.99)
GFTFDDYAKH | GIRWNSGSIGYADSVH | VGRGGGYFDY | ND / 5.64 / ND | 5.64 | 1/9 (5.36)
GFTFHDYAMH | GISWNKGSIGYADSVK | VGRGGGYFRY | ND / ND / ND | ND | 2/9 (4.90)
GFTMDDYAKH | GISWNSNSIGYADSVK | VGRGGGYFDY | 4.55 / ND / ND | 4.55 | 1/9 (3.70)
GFTFDDYYMH | GISENSGSFGYADSVK | VGRGGGYFDY | ND / ND / ND | ND | 0/9
CFTLDDYAMH | GISWNSGSIGYADSVI | VGRGGGYFDY | 3.83 / ND / ND | 3.83 | 1/9 (4.72)
GGTFDDGAMH | GVSWNSGSIGYADSVK | VGRGGGYFDY | 5.49 / ND / 4.70 | 5.10 | 3/9 (4.94)
GFFFDDYACH | GISWNSGSIGYADSVK | VGRGGHYFDY | 5.30 / ND / 4.07 | 4.68 | 2/9 (3.74)
GFTFDDQAMH | GISPNSNSIGYADSVK | VGRGGGYFDY | 2.41 / 2.51 / 1.65 | 2.19 | 1/9 (3.89)
GFTFDDYAMH | GISWNSESIGYADSPK | VGRGGGYFDY | 2.22 / 2.49 / 2.55 | 2.42 | 0/9
GFTNDDYAMH | GISWNSGSIGYARSVK | VGRGGGYFDP | ND / ND / ND | ND | 1/9 (4.37)
MFTFDDYAMH | GIRWNSGSIGYADSVK | PGRGGGYFDY | 4.83 / 4.12 / 5.60 | 4.85 | 5/9 (4.34)
GFAFDDYAMH | GISWNSGSIGYADSNK | VGRGQGYFDY | 2.42 / ND / 2.32 | 2.37 | 0/9
GFTFDDYAYH | GISWNSGSWGYADSVK | VGRWGGYFDY | ND / ND / ND | ND | 0/9
GFTFNDYAMH | GISGNSGSIGYAWSVK | VGRGGGYFDY | 1.94 / 2.07 / 1.58 | 1.86 | 2/9 (3.92)
GFTFDDYAMH | GISWNSGSIGYADWVK | VGCGGGYFCY | 5.07 / ND / ND | 5.07 | 0/9
GFTFDDYAMY | GISWNSGYIGYATSVK | VGRGGGYFDY | 3.50 / ND / ND | 3.50 | 1/9 (2.77)
GFTFDDYAMH | GISWNSAYIGYADSVK | VGRGGGYFDY | 3.16 / 4.74 / 5.01 | 4.30 | 1/9 (4.03)
GFTFDDYAMH | GISWNSGSIGYADSVN | VGRGGQYFDW | 1.31 / 1.39 / 0.68 | 1.13 | 1/9 (4.37)
TSVFDDYAMH | GISWNSGSIGYADSVK | VGRGGGYFDY | ND / 6.40 / 4.47 | 5.43 | 2/9 (5.42)
KFQFDDYAMH | GISWNSGSIGYAMSVK | VGRGGGYFDY | ND / ND / ND | ND | 0/9
GFTFDDYAFH | GKSWNDGSIGYADSVK | VGRGGGYFDY | 5.67 / ND / ND | 5.67 | 3/9 (5.17)
GFTFDDYAMH | GISWNHGSFGDADSVK | VGRGGGYFDY | ND / ND / ND | ND | 0/9
GFTFDDNAMH | GISWNSGHIGYADSVK | VGRGGGYPDY | 2.80 / 3.02 / 2.84 | 2.89 | 2/9 (4.41)
GFTCDDYAMH | GCSWNSGSIGYADSVK | VGKGGGYFDY | ND / ND / 4.39 | 4.39 | 3/9 (4.79)
FFTFDDYAMH | GTSMNSGSIGYADSVK | VGRGGGYFDY | ND / ND / ND | ND | 1/9 (4.26)
GFTFDDYAMH | GISWNSGSMGYADSVK | VGWGGGYFDM | ND / ND / ND | ND | 0/9
GFTFDDYAMH | GSSWNSGSIGYADSVK | VGRIGGYFDY | ND / 4.83 / ND | 4.83 | 1/9 (3.72)
GFTFDDYAAH | GISWNSGSIGYADSVK | VKCGGGYFDY | 4.09 / 6.08 / ND | 5.09 | 2/9 (4.67)
GDTSDDYAIH | GISWNSGSIGYADSVK | VGRGGGYFDY | 3.06 / 3.61 / 3.11 | 3.26 | 6/9 (5.14)
GFTFDDYAMH | GIRWNNGSIGYADSVK | VGRGAGYFDY | 5.71 / 5.05 / ND | 5.38 | 5/9 (5.24)
GQTFDDYAMH | GISWNSGSIGYADSAK | VIRGGGYFDY | ND / ND / ND | ND | 3/9 (3.22)
GFTFDDYAMH | GISWNSQSIGYADSVK | FGRHGGYFDY | 4.46 / 5.50 / ND | 4.98 | 4/9 (4.60)
GFTFDDYAMH | CIKWNSGSIGYADSVK | VCRGGGYFDY | ND / ND / ND | ND | 0/9
GFTFDRYAMH | GISWNSGCIGYADSVK | VGRGGGYFLY | ND / ND / 3.31 | 3.31 | 4/9 (4.29)
GFTFDDYAMH | GISWNLGSKGYADSYK | VGRGGGYFDY | ND / ND / ND | ND | 1/9 (4.21)
GFTFDDYAMH | GISWDSGSIGVADSVK | VGRGGGYFHY | ND / ND / ND | ND | 0/9
GFTFDDYAMH | GCSWNSGSIGYADSVW | VGRGGGYFEY | ND / ND / ND | ND | 0/9
GFTFDDYAMH | GISWQSGSIGYADNVK | VGRGNGYFDY | 4.11 / ND / 4.34 | 4.23 | 4/9 (4.35)
GFEFDDYTMH | GISWNSGSIGYADSVK | VGRGGGYFIY | ND / 4.66 / ND | 4.66 | 0/9

The opening 7 entries, copied out:

{"CDR-H1": "GFTVDDYAMH", "CDR-H2": "GISWNYGSIGYADSVK", "CDR-H3": "SGRGGGYFDY", "replicates, log10 nM": "4.47 / 4.26 / ND", "log10 Kd (nM), mean": "4.37", "control signals": "4/9 (4.51)"}
{"CDR-H1": "GFTFDDYAMH", "CDR-H2": "GISWNSGSIGYKDSVK", "CDR-H3": "VGRGGGYFDY", "replicates, log10 nM": "4.71 / 5.54 / 4.47", "log10 Kd (nM), mean": "4.91", "control signals": "6/9 (4.50)"}
{"CDR-H1": "EFTFDDYAMH", "CDR-H2": "GISWNSGSIIYADSVK", "CDR-H3": "VGAGGGYFDY", "replicates, log10 nM": "ND / ND / ND", "log10 Kd (nM), mean": "ND", "control signals": "0/9"}
{"CDR-H1": "GFTFDDYAMH", "CDR-H2": "GIAWNSGSIGCADSVK", "CDR-H3": "IGRGGGYFDY", "replicates, log10 nM": "4.35 / 6.31 / 4.88", "log10 Kd (nM), mean": "5.18", "control signals": "3/9 (4.88)"}
{"CDR-H1": "GFTFDYYAMH", "CDR-H2": "GISWNSGSIGCADSVK", "CDR-H3": "VGRGGGYFIY", "replicates, log10 nM": "4.66 / 3.62 / 2.92", "log10 Kd (nM), mean": "3.73", "control signals": "1/9 (3.80)"}
{"CDR-H1": "GNAFDDYAMH", "CDR-H2": "GISWNSGSIGYADSVK", "CDR-H3": "VGRGKGYFDY", "replicates, log10 nM": "ND / ND / 3.71", "log10 Kd (nM), mean": "3.71", "control signals": "0/9"}
{"CDR-H1": "GFTFDDYAMH", "CDR-H2": "GISWNSFSIGYASSVK", "CDR-H3": "VGRGGGYFDY", "replicates, log10 nM": "3.50 / ND / 0.62", "log10 Kd (nM), mean": "2.06", "control signals": "0/9"}

Reference: Engelhart et al. 2022, doi:10.1038/s41597-022-01779-4. File: FLAb, binding data.